Experimental data: US5262537A, “Derivatives of 4,5,6,7-tetrahydroimidazo-[4,5-c]pyridinyl-6-carboxylic acid” (priority 1993, dated 1993)

By UniProt entry, the sequences of proteins in these tests, tags left out. Residues count along the entry.
UniProt P35563, 24-483 limits assumed: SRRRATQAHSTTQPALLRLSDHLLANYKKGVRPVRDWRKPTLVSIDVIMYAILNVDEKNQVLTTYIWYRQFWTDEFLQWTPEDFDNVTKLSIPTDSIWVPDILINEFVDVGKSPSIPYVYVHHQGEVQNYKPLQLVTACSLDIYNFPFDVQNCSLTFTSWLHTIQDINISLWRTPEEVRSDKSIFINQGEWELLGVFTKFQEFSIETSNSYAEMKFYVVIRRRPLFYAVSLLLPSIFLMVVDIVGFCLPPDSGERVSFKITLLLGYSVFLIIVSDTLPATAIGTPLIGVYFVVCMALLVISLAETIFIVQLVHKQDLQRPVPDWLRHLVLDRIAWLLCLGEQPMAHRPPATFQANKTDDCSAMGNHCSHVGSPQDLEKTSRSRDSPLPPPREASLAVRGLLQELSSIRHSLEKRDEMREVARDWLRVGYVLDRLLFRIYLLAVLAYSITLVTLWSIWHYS

Key:
5-HT3 = 5-HT3 (Rattus norvegicus, UniProt P35563); details: read-out: 5-HT3 IC50; 0.2 nM [3H]GR65630, rat entorhinal cortex, 40 minutes, room temperature; tested form: 2HCl.0.25H2O
Ferret = experiment: Cisplatin Ferret Assay--Antiemetic Screening; assay type: in vivo, Male ferrets; details: 0.1 mg/kg i.v., 30 minutes after cisplatin 10 mg/kg i.v.; percent reduction of emetic episodes vs controls, four hours; tested form: 2HCl.0.25H2O

IC50 (5-HT3): 162 nM
SMILES: COc1ccc(OC)c(NC(=O)[C@@H]2Cc3[nH]cnc3CN2C)c1
Ferret Cisplatin Test % Prot, 0.1 mg/Kg (Ferret): 50%
